The target in this assay is T1, GST-METTL3 fusion protein (human).
T1 construct: METTL3, human; 'coding regions of human genes METTL3 and TRIM21' inserted into pGEX-4T-1; Vector pGEX-4T-1; source: E. coli BL21, purified
Description: pull-down; purified His-TRIM21 incubated with purified GST or GST-METTL3 overnight at 4 °C, captured on glutathione-sepharose beads, immunoblot. The following applies: both partners purified. (In western blotting, separated proteins are transferred to a membrane and probed.)

B1: purified His-TRIM21 (enzyme, human, UniProt P19474 1-475, looked up)
chain: MASAARLTMMWEEVTCPICLDPFVEPVSIECGHSFCQECISQVGKGGGSVCPVCRQRFLLKNLRPNRQLANMVNNLKEISQEAREGTQGERCAVHGERLHLFCEKDGKALCWVCAQSRKHRDHAMVPLEEAAQEYQEKLQVALGELRRKQELAEKLEVEIAIKRADWKKTVETQKSRIHAEFVQQKNFLVEEEQRQLQELEKDEREQLRILGEKEAKLAQQSQALQELISELDRRCHSSALELLQEVIIVLERSESWNLKDLDITSPELRSVCHVPGLKKMLRTCAVHITLDPDTANPWLILSEDRRQVRLGDTQQSIPGNEERFDSYPMVLGAQHFHSGKHYWEVDVTGKEAWDLGVCRDSVRRKGHFLLSSKSGFWTIWLWNKQKYEAGTYPQTPLHLQVPPCQVGIFLDYEAGMVSFYNITDHGSLIYSFSECAFTGPLRPFFSPGFNDGGKNTAPLTLCPLNIGSQGSTDY
notes: TRIM21, human; 'coding regions of human genes METTL3 and TRIM21' inserted into pET-28a; Vector pET-28a; source: E. coli BL21, purified
For B1, the binding result is reported as “binds”.
